System: PC-3 tumors
Experiment: In vivo efficacy in athymic nude mice bearing human xenograft prostate cancer tumor
Conditions: single i.v. injection (40 mg/kg Ptx where drug), day 60; initial volume averaged 155 mm^3

CC(=O)O[C@H]1C(=O)[C@@]2(C)[C@H]([C@H](OC(=O)c3ccccc3)[C@]3(O)C[C@H](OC(=O)[C@H](O)[C@@H](NC(=O)c4ccccc4)c4ccccc4)C(C)=C1C3(C)C)[C@]1(OC(C)=O)CO[C@@H]1C[C@@H]2O [Ptx, Paclitaxel]
mean tumor size at the end of the study: 166.2 mm^3

Reference: patent US8389012B2, “Gellan-gum nanoparticles and methods of making and using the same” (The Corporation of Mercer University, priority 2008, dated 2013)
